Literature values in patent US20120301405A1, “Simple Mechanical Procedure and Product for Deterring Substance Abuse” (priority 2005, published 2012).

Conditions: value in square brackets

## CN1C(=O)CN=C(c2ccccc2F)c2cc([N+](=O)[O-])ccc21 [Flunitrazepam]
  Elimination ½-Life (h) [active metabolite]: [36-200] h
